# Measured values reported in ChEMBL document CHEMBL4325908, “Ligand-based design, synthesis and biological evaluation of xanthine derivatives as LSD1/KDM1A inhibitors” (Eur J Med Chem, 2019).
# Tested on: MGC-803
# Assay: Antiproliferative activity against human MGC803 cells after 72 hrs by MTT assay
# Type: functional, cell-based
row,Structure (SMILES),Activity
1,CCCn1c(SCc2cccc(C)c2)nc2c1c(=O)[nH]c(=O)n2C,Dose-dependent effect
2,CCCn1c(SCc2ccc(F)cc2)nc2c1c(=O)[nH]c(=O)n2C,Dose-dependent effect
